One molecule from ChEMBL document CHEMBL1130012 (J Med Chem, 1997) can be followed below.

The target in this experiment is Muscarinic acetylcholine receptor M3 (Cavia porcellus, UniProt Q8VH26).

As usually defined, the Ki is the dissociation constant of the complex between target and ligand, obtained from inhibition or displacement. In the case of `C[N+]1(C)CCC(OC(=O)[C@](O)(c2ccccc2)C2CCCCC2)CC1.[I-]`, the Ki was found to be 0.09 nM. This lies in the picomolar range.
